Drawing on patent publication US12514858B2, “CD38 inhibitors” (Astellas Engineered Small Molecules US, Incorporated, priority 2020, dated 2026), this text covers IC50 for eight compounds.

Chains of the proteins cited; added tags and fusions are not shown.
UniProt P28907, whole entry: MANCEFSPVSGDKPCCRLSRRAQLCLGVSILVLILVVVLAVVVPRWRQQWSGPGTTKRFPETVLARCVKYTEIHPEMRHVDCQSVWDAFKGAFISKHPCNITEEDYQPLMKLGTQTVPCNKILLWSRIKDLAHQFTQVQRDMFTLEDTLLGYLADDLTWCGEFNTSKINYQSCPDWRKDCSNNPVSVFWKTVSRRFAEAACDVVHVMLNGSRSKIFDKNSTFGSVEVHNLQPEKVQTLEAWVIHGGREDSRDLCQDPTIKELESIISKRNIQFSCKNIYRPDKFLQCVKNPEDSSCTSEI

The assay addresses Human CD38 (Homo sapiens (Human), UniProt P28907). Nature of the assay: Determination of IC50 against human CD38 (CD38 Inhibitor Screening Assay Kit, glycohydrolase activity, fluorescence). Type of assay: biochemical. The conditions noted are these: CD38 hydrolase enzyme, 30 min preincubation at room temperature, F-NAD substrate, excitation 300 nm, emission 410 nm; read-out: hCD38 IC50. On the procedure:
CD38 hydrolase buffer (4×) was thawed on ice and 1×CD38 hydrolase buffer was prepared by diluting 4×CD38 hydrolase buffer with water. CD38 hydrolase enzyme was diluted to […] with 1×CD38 hydrolase buffer (10 ng/well). Master mix was prepared by mixing equal volumes of water and CD38 hydrolase buffer (4×) and 10 μl of the mix was added to all the wells. Following master mix addition, 10 μl of the inhibitors and 20 μl of CD38 hydrolase enzyme were added to the wells. For wells designated blank, 10 μl and 20 μl of 1× CD38 hydrolase buffer was added respectively in place of […]. The plate was covered and incubated 30 min at room temperature with slow shaking at 400 rpm. After 30 min incubation, the plate was removed and 10 μl of diluted F-NAD substrate was added to all the wells. The plate is incubated for 10 min, spun at 1200 rpm for 30 secs to remove bubbles and read in Tecan Spark using a fluorometer setting of excitation 300 nm and emission 410 nm. The reading for the blank was subtracted from all the values. IC50 for the test compounds were determined by using Graphpad prism software v7.0.
`COCCO[C@H]1CC[C@H](NC(=O)c2cc(-n3ccnc3)cc(-c3cncs3)n2)CC1` [Ex. 10, 4-(1H-imidazol-1-yl)-N-((1r,4r)-4-(2-methoxyethoxy)cyclohexyl)-6-(thiazol-5-yl)picolinamide]: the IC50 (in general, the concentration needed to halve the response being measured) amounted to 4900 nM. Consider `COCCO[C@H]1CC[C@H](NC(=O)c2cc(-c3cnn(C)c3)cc(-n3ccnc3)n2)CC1` [Ex. 12, 6-(1H-imidazol-1-yl)-N-((1r,4r)-4-(2-methoxyethoxy)cyclohexyl)-4-(1-methyl-1H-pyrazol-4-yl)picolinamide], for which the IC50 came to 5 nM. `COCCO[C@H]1CC[C@H](NC(=O)c2cc(-c3cnn(C(C)C)c3)cc(-n3ccnc3)n2)CC1` [Ex. 13, 6-(1H-imidazol-1-yl)-4-(1-isopropyl-1H-pyrazol-4-yl)-N-((1r,4r)-4-(2-methoxyethoxy)cyclohexyl)picolinamide]: the IC50 was 40 nM. Regarding `COCCO[C@H]1CC[C@H](NC(=O)c2cc(N)cc(-n3ccnc3)n2)CC1` [Ex. 15, 4-amino-6-(1H-imidazol-1-yl)-N-((1r,4r)-4-(2-methoxyethoxy)cyclohexyl)picolinamide], the IC50 worked out at 42 nM. Regarding `COCCO[C@H]1CC[C@H](NC(=O)c2cc(-n3ccnc3)cc(-n3ccnc3)n2)CC1` [Ex. 16, 4,6-di(1H-imidazol-1-yl)-N-((1r,4r)-4-(2-methoxyethoxy)cyclohexyl)picolinamide], the IC50 was determined as 6.8 nM. On to `COCCO[C@H]1CC[C@H](NC(=O)c2cc(-c3cncs3)cc(-n3ccnc3)n2)CC1` [Ex. 17, 6-(1H-imidazol-1-yl)-N-((1r,4r)-4-(2-methoxyethoxy)cyclohexyl)-4-(thiazol-5-yl)picolinamide], for which the IC50 was determined as 7 nM. Under `COCCO[C@H]1CC[C@H](NC(=O)c2ccnc(-n3ccnc3)c2)CC1` [Ex. 21, 2-(1H-imidazol-1-yl)-N-((1r,4r)-4-(2-methoxyethoxy)cyclohexyl)isonicotinamide] stands 996 nM; under `COCCO[C@H]1CC[C@H](NC(=O)c2cc(-c3cnn(C)c3)nc(-n3ccnc3)n2)CC1` [Ex. 27, 2-(1H-imidazol-1-yl)-N-((1r,4r)-4-(2-methoxyethoxy)cyclohexyl)-6-(1-methyl-1H-pyrazol-4-yl)pyrimidine-4-carboxamide], 4.2 nM.
